Laboratory results taken from patent publication US7001746B1, “Methods and compositions for the differentiation of human preadipocytes into adipocytes” (Artecel Sciences, Inc., priority 1999, dated 2006).

Test system: human preadipocytes
Settings: horizontal line in FIG. 5

For CN(CCOc1ccc(CC2SC(=O)NC2=O)cc1)c1ccccn1 (centres unmarked) [BRL49653], the “Oil Red O absorbance” value (50 nM) was “approximately 0.2 OD units” and the “Oil Red O absorbance” value (1 μM BRL49653) was “approximately 0.2 OD”.

Like-named read-outs stand apart in the source and are kept apart here.
